The values below are quoted from earlier work in US5756501A, “Saturated and unsaturated pyridazino[4,5-B] indolizines useful as antidementia agents” (American Home Products Corporation, priority 1996, dated 1998).

The data set deals with m1 receptors. The conditions noted are these: cited from earlier work.

Turning to `C[N+](C)(C)CCOC(N)=O` [carbachol], the “activation of m1 receptors” value is “able to fully activate m1 receptors”.
